The numbers were not newly measured in publication PMC2666074, which cites them from elsewhere.

For orientation: Kd means the concentration at which binding is half-saturated.

The target of the series is SIP (UniProt Q9HB71). Put plainly: fluorescence spectroscopy.

Consider S100A6 (from UniProt P06703), for which the Kd was 1 µM.
